The record followed here is paper PMC12279946 (Nature Communications, 2024).

This experiment has as its target T1, mono-ubiquitin (Ub^1) (UniProt P0CG48 1-76).
T1 construct: mono-ubiquitin, the 76-residue mature ubiquitin; plasmid provided by Brenda Schulman; His6 tag removed with GST-tagged 3C protease; source: E. coli Rosetta, purified (Ni-NTA, 3C cleavage, reverse Ni-NTA, SEC); not shown: His6, N-terminal, cleaved
The experiment in a line: NMR titration; 2D 1H,15N-HSQC of 100 µM 15N-labelled SPRTN construct alone or with 500 µM Ub^1 (5x molar excess), no DNA; 20 mM HEPES/KOH pH 7.2, 150 mM KCl, 10% D2O, 308 K, 600 MHz. The following applies: both partners purified.

B1: SprT-BR (SPRTN aa28-245), minimal active SPRTN variant lacking MIU and UBZ (domain or fragment, human, UniProt Q9H040 28-245, looked up)
chain: SLSLVDASWELVDPTPDLQALFVQFNDQFFWGQLEAVEVKWSVRMTLCAGICSYEGKGGMCSIRLSEPLLKLRPRKDLVETLLHEMIHAYLFVTNNDKDREGHGPEFCKHMHRINSLTGANITVYHTFHDEVDEYRRHWWRCNGPCQHRPPYYGYVKRATNREPSAHDYWWAEHQKTCGGTYIKIKEPENYSKKGKGKAKLGKEPVLAAENKDKPNRG
notes: Uniformly 15N-labelled in the NMR experiments, unlabelled in the cleavage assays; Tag cut off with Strep-tagged TEV protease; also called 15N-SprT-BR; source: E. coli BL21 (DE3), purified (Strep-Tactin, heparin, TEV cleavage, SEC); expressed in 15N-containing media for NMR
Turning to B1, the binding result was “binds”.
